{
  "source": "patent US20260042815A1",
  "about": "“UNIVERSAL T CELLS AND COMPOSITIONS AND METHODS OF USE THEREOF” (The Trustees of the University of Pennsylvania, priority 2022, published 2026)",
  "molecules": {"B1": {"name": "HLA-E SCT: HLA-E/beta-2-microglobulin/peptide single chain trimer presenting the HLA-C*03:01 leader peptide (SEQ ID NO: 40) (protein)", "chain": "VMAPRTLILGGGASGGGGSGGGGS[about 100 residues skipped]GGGGSGGGGSGGGGSGGGGSGSHSLKYFHTSVSRPGRGEPRFISVGYVDDTQFVRFDNDAASPRMVPRAPWMEQEGSEYWDRETRSARDTAQIFRVNLRTLRGYYNQSEAGSHTLQWMHGCELGPDGRFLRGYEQFAYDGKDYLTLNEDLRSWTAVDTAAQISEQKSNDASEAEHQRAYLEDTCVEWLHKYLEKGKETLLHLEPPKTHVTHHPISDHEATLRCWALGFYPAEITLTWQQDGEGHTQDTELVETRPAGDGTFQKWAAVVVPSGEEQRYTCHVQHEGLPEPVTLRWKPASQPTIPIVGIIAGLVLLGSVVSGAVVAAVIWRKKSSGGKGGSYSKAEWSDSAQGSESHSL"}},
  "key": {"NK cells [1]": {"test_system": "NK cells", "assay": "Standard 4 h 51Chromium release assay, K562 HLA-E SCT transfectants as targets, NK cells as effectors", "format": "cell-based, human", "details": "for NK cell-mediated lysis of K562 targets: across experiments", "excerpt": "Furthermore, the present studies have utilized the SCT format as a facile platform to generate a new molecular entity that solves a critical gap in the ability to engraft normal donor cells or tissues in an unrelated allogeneic host. […] The present studies designed and tested an HLA-E single-chain trimer (ScT) as an inhibitory receptor for UCART cells and also determined the key NK cell activating receptors that recognize stress ligands on UCART cells (FIG. 5). By LV gene transfer, a panel of K562 transfectants have established to develop a screening platform that permitted functional assays using NK cells as effectors to determine the degree of protection against cytolysis (FIG. 6 through FIG. 9). […] Next, seven HLA-E SCT constructs expressed in K562 were examined and used as targets in a standard 4 h ^51Chromium release assay. NK cells were used from several normal donors as effector cells to study the ability of HLA-E SCT to act as a decoy to inhibit NK cell mediated killing. It was well-established that both NKG2A and NKG2C bind HLA-E present on the target cell. It was the integration of combined signaling through the two NKG2 receptors that determined NK cell effector function.\nNK cells from normal donor 517 were expanded for 10 d in IL-2/IL-15 and used as effector cells at the indicated effector to target ratios (E:T ratio) in a standard 4 hr ^51Cr release assay. Target cells (10,000 per well) studied included K562 parental and K562 transfected with various HLA-E single chain trimer constructs. Target cells were labeled with ^51Chromium for 1 h, washed 3×, and then plated in 96 well trays containing NK cells. All assays are performed in triplicate. After 4 h incubation at 37° C., 5% CO2, the plate was removed from the incubator and centrifuged for 10 minutes. 50 ul of supernatant was carefully removed and counted in a MicroBeta2 LumiJET microplate counter (Perkin Elmer). Data were represented as percent-specific lysis reported as mean+/−SD.\nNK cells from five normal donors were studied in a 4 h ^51Cr release assay using K562 HLA-E SCT targets. […] As a control, parental K562 cells were killed by NK cells from all donors."}, "NK cells [2]": {"test_system": "NK cells", "assay": "Real time apoptotic cell death analysis (xCELLigence eSIGHT live cell imaging), mCherry K562 targets plus NK cells", "format": "cell-based, human", "protocol": "Real time apoptotic cell death analysis (live cell imaging with cellular impedance) was performed using the xCELLigence real time cell analysis eSIGHT system (Agilent). mCherry labeled-K562 target cells were plated (10,000/well) and allowed to adhere for 24 h. Effector NK cells (normal donor 517) were added at a 5:1 E:T ratio and the assay was continued for 3 additional days. Red total integrated intensity (live imaging) was measured every 15 min for 3 days. Decreased in intensity reflected elimination of targets. […] Values reflected the mean of triplicate wells+/−SD.\nThe balance of NK populations (NKG2A vs. NKG2C) within a donor influences the functional outcome upon SCT engagement by NK cells (FIG. 24)."}, "NK cells [3]": {"test_system": "NK cells", "assay": "Flow based NK cell activation assay (CD107a degranulation) with K562 cells +/- HLA-E SCT", "set-up": "species or system human", "protocol": "Flow based assay was utilized to examine NK cell activation by K562 cells+/−HLA-E SCT. NK cells were mixed with K562 cells (1:1 ratio) for 6 h and then stained with antibodies to CD107a to measure degranulation of the major subsets (NKG2A+ and NKG2C+). The bar graph summarized the representative results that indicated the protection provided by HLA-E SCT for the NKG2A+ subset (FIG. 19). In contrast, HLA-E SCT conferred no protection of K562 by NKG2C+ subset."}},
  "data": [
    {"molecule": "B1", "values": [
      {"measurement": "Reduction in K562 lysis", "setting": "NK cells [1]; 4-hour assay, 2:1 E:T ratio, compared with other HLA-E SCT constructs", "result": "most significant reduction in K562 lysis"},
      {"measurement": "Inhibition of NK cells by HLA-E SCT", "setting": "NK cells [1]; NK485 NK cells (significant NKG2C)", "result": "less susceptible to inhibition"},
      {"measurement": "Inhibition of NK cells by HLA-E SCT", "setting": "NK cells [1]; NK517 NK cells (NKG2A exclusively)", "result": "almost completely inhibited"},
      {"measurement": "Inhibition of NK cell lysis of K562 targets", "setting": "NK cells [1]; NK cells from donor 517", "result": "inhibited most significantly"},
      {"measurement": "Inhibition of NK cell subset by HLA-E SCT", "setting": "NK cells [1]; NKG2A+/NKG2C+ double positive subset", "result": "inhibited"},
      {"measurement": "Inhibition of NK cell subset by HLA-E SCT", "setting": "NK cells [1]; NKG2C+ single positive NK cells", "result": "minimally inhibited"},
      {"measurement": "NK cell-mediated lysis of K562 targets", "setting": "NK cells [1]", "result": "consistently reduced NK cell-mediated lysis"},
      {"measurement": "NK cell-mediated lysis of K562 targets", "setting": "NK cells [1]; listed as C*0301 leader peptide", "result": "most reproducible inhibition"},
      {"measurement": "NK cell-mediated lysis of K562 targets", "setting": "NK cells [1]; listed as HLA-E/C", "result": "Decreased lysis"},
      {"measurement": "Protection of K562 targets from killing in live cell imaging", "setting": "NK cells [2]; ND561 NK cells (21% NKG2C+), 3 d", "result": "partial protection"},
      {"measurement": "Protection of K562 targets from killing in live cell imaging", "setting": "NK cells [2]; NK cells of normal donor 517 (primarily NKG2A), 5:1 E:T, 3 days", "result": "complete lysis protection"},
      {"measurement": "Inhibition of NK cells in degranulation (CD107a) assays", "setting": "NK cells [3]; K562 transduced targets", "result": "significant inhibition of NK cells"},
      {"measurement": "CD107a degranulation / protection, NKG2A+ subset", "setting": "NK cells [3]; NKG2A+ NK cells, K562 1:1 ratio, 6 h", "result": "protection"},
      {"measurement": "CD107a degranulation / protection, NKG2C+ subset", "setting": "NK cells [3]; NKG2C+ NK cells, K562 1:1 ratio, 6 h", "result": "no protection"}
    ]}
  ]
}
